This assay deals with human ATX (Homo sapiens (Human), UniProt Q13822). Briefly: Human ATX enzyme inhibition assay (fluorescence quenching, MR121 substrate). The settings on record: read-out: ATX Ic50; human His-tagged ATX 30 nM, MR121 substrate 1 μM, 30° C. As to the method:
Human ATX Enzyme Inhibition Assay
ATX inhibition was measured by a fluorescence quenching assay using a specifically labeled substrate analogue (MR121 substrate). To obtain this MR121 substrate, BOC and TBS protected 6-amino-hexanoic acid (R)-3-({2-[3-(2-{2-[2-(2-amino-ethoxy)-ethoxy]-ethoxy}-ethoxy)-propionylamino]-ethoxy}-hydroxy-phosphoryloxy)-2-hydroxy-propyl ester (Ferguson et al., Org Lett 2006, 8 (10), 2023) was labeled with MR121 fluorophore (CAS 185308-24-1, 1-(3-carboxypropyl)-11-ethyl-1,2,3,4,8,9,10,11-octahydro-dipyrido[3,2-b:2′,3′-i]phenoxazin-13-ium) on the free amine of the ethanolamine side and then, after deprotection, subsequently with tryptophan on the side of the aminohexanoic acid.
Assay working solutions were made as follows:
Assay buffer (50 mM Tris-HCl, 140 mM NaCl, 5 mM KCl, 1 mM CaCl2, 1 mM MgCl2, 0.01% Triton-X-100, pH 8.0;
ATX solution: ATX (human His-tagged) stock solution (1.08 mg/mL in 20 mM bicine, pH 8.5, 0.15 M NaCl, 10% glycerol, 0.3% CHAPS, 0.02% NaN3), diluted to 1.4-2.5× final concentration in assay buffer;
MR121 substrate solution: MR121 substrate stock solution (800 μM MR121 substrate in DMSO), diluted to 2-5× final concentration in assay buffer.
Test compounds (10 mM stock in DMSO, 8 μL) were obtained in 384 well sample plates (Corning Costar #3655) and diluted with 8 μL DMSO. […]

Turning to `Cn1c(COc2ccc(C#N)cc2C(C)(C)C)n[nH]c1=O`, the IC50 came out at 2 nM.

The IC50 is the concentration that gives 50% inhibition.

The values are drawn from US11352330B2, “Phenoxymethyl derivatives” (Hoffmann-La Roche Inc., priority 2015, dated 2022).
